Experiments:
[1] = target: GABA-A receptor; alpha-5/beta-3/gamma-2 (Homo sapiens, UniProt P18507+P28472+P31644); assay: Inhibition of [3H]-Ro- 15-1788 binding to recombinant human gamma-aminobutyric-acid A receptor alpha-5-beta-3-gamma-2
[2] = target: GABA-A receptor; alpha-1/beta-3/gamma-2 (Homo sapiens, UniProt P14867+P18507+P28472); assay: Inhibition of [3H]-Ro- 15-1788 binding to recombinant human gamma-aminobutyric-acid A receptor alpha-1-beta-3-gamma-2
[3] = target: GABA-A receptor; alpha-2/beta-3/gamma-2 (Homo sapiens, UniProt P18507+P28472+P47869); assay: Inhibition of [3H]-Ro- 15-1788 binding to recombinant human gamma-aminobutyric-acid A receptor alpha-2-beta-3-gamma-2
[4] = target: GABA-A receptor; alpha-3/beta-3/gamma-2 (Homo sapiens, UniProt P18507+P28472+P34903); assay: Inhibition of [3H]-Ro- 15-1788 binding to recombinant human gamma-aminobutyric-acid A receptor alpha-3-beta-3-gamma-2

By UniProt entry, the sequences of proteins in these tests, tags left out. Residues count along the entry.
UniProt P18507, 40-475 limits assumed: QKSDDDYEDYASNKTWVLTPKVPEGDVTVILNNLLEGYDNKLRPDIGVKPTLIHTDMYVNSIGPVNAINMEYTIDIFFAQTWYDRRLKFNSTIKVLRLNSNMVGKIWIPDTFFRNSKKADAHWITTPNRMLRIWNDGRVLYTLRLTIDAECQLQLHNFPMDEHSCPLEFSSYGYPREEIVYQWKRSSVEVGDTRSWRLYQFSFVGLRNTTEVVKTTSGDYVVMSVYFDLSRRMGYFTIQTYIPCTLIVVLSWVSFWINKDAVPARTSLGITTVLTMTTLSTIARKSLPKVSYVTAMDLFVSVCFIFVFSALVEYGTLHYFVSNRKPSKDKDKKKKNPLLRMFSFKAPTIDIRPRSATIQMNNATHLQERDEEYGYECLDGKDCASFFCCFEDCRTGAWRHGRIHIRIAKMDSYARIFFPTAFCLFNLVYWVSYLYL
UniProt P28472, 26-473 limits assumed: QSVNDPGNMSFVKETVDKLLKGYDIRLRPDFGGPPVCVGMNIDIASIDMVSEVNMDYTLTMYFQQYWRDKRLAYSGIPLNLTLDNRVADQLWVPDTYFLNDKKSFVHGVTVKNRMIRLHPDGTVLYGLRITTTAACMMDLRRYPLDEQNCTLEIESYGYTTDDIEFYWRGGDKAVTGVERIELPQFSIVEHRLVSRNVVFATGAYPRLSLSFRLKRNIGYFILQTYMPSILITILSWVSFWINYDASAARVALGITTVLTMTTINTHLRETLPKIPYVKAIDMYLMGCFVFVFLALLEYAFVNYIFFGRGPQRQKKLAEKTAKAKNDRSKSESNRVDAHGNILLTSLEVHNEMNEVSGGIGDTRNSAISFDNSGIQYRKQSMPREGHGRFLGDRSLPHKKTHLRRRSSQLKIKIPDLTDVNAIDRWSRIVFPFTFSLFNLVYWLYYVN
UniProt P31644, 32-462 limits assumed: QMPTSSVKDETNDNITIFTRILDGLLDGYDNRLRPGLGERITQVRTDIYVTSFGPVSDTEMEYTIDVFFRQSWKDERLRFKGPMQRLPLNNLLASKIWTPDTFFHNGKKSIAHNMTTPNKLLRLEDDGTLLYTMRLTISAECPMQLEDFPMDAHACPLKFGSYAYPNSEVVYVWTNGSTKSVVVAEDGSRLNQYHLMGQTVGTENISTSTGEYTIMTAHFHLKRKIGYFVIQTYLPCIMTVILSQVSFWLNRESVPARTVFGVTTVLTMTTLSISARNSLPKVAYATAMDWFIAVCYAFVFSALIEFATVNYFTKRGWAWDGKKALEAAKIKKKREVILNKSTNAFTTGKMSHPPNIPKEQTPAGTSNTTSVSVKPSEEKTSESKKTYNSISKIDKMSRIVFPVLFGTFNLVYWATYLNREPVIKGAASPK
UniProt P14867, 28-456 limits assumed: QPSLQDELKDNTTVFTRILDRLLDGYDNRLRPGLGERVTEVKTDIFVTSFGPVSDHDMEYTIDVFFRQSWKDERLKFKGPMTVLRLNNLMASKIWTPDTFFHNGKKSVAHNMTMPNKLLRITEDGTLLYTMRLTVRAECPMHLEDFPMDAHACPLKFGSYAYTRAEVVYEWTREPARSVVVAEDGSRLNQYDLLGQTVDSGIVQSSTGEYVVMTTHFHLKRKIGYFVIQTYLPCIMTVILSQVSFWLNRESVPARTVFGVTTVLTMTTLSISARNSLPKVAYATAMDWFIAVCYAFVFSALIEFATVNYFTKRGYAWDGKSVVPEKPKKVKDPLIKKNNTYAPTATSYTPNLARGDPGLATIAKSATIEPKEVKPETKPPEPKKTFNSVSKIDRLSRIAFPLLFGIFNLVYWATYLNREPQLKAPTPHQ
UniProt P47869, 29-451 limits assumed: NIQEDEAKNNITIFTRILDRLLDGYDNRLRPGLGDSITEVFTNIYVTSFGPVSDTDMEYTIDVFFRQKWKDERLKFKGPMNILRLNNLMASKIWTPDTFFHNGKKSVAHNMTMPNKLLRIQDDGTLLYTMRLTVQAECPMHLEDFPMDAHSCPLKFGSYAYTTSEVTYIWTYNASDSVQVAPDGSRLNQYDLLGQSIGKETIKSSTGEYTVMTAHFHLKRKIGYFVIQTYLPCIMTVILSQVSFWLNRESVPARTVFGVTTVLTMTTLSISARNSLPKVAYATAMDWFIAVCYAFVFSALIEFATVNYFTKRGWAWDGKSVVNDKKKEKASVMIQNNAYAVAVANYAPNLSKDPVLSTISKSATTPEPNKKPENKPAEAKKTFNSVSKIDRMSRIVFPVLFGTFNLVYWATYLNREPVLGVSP
UniProt P34903, 29-492 limits assumed: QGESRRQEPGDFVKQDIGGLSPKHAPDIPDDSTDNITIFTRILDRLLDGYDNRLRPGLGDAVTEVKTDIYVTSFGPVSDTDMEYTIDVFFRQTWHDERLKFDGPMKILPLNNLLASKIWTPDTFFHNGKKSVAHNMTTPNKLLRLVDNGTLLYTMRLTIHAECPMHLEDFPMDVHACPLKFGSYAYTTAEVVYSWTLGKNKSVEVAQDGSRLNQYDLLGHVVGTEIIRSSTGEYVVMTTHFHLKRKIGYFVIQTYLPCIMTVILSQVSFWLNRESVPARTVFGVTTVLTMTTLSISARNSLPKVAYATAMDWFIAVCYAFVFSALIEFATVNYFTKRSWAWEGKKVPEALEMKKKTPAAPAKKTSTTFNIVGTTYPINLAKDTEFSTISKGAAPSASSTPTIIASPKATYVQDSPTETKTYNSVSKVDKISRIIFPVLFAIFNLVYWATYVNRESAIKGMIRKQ

With `CNC1=Nc2ccc(Cl)cc2C(c2ccccc2)=[N+]([O-])C1` the Ki [1] was 368 nM, the Ki [2] was 605 nM and the Ki [3] was 392 nM. The Ki [4] was 471 nM.

Source: ChEMBL document CHEMBL1146760, “3,4-Dihydronaphthalen-1(2H)-ones: novel ligands for the benzodiazepine site of alpha5-containing GABAA receptors” (Bioorg Med Chem Lett, 2004)
